3 molecules from US20140127136A1, “LIPOSOMES USEFUL FOR DRUG DELIVERY TO THE BRAIN” (Merrimack Pharmaceuticals, Inc., priority 2004, published 2014) can be followed below.

Structures can show the parent of a compound that is named as a salt. Where two headings read alike, the source gives them in different places.

Assay [1] concerns HER2-overexpressing human breast carcinoma cells SKBr-3. The note with it: drug incubated with the cells for 6 h.
Assay [2] has as its system SKBr-3 breast cancer cells. The assay is described as follows: cells. The note with it: Homo sapiens, SK-BR-3.
The subject of assay [3] is HER2-overexpressing human breast carcinoma cells SKBr-3. The assay can be described thus: MTT cytotoxicity of free, liposomal and immunoliposomal vincristine. The note with it: SK-BR-3.

The term IC50 denotes the midpoint of a concentration-inhibition curve. In the case of `CCC1=C[C@@H]2CN(C1)Cc1c([nH]c3ccccc13)[C@@](C(=O)OC)(c1cc3c(cc1OC)N(C)[C@H]1[C@@](O)(C(=O)OC)[C@H](OC(C)=O)[C@]4(CC)C=CCN5CC[C@]31[C@@H]54)C2.O=C(O)C(O)C(O)C(=O)O.O=C(O)C(O)C(O)C(=O)O` [free VRB, vinorelbine bitartrate], the IC50 in assay [1] was determined as 0.28 µg/mL. Regarding `CC[C@@]1(O)C(=O)OCc2c1cc1n(c2=O)Cc2cc3c(CN(C)C)c(O)ccc3nc2-1` [free Topotecan, Topotecan Hydrochloride], the IC50 in assay [2] is ≥ 2.3 µg/mL. In assay [3], `CC[C@]1(O)C[C@H]2CN(CCc3c([nH]c4ccccc34)[C@@](C(=O)OC)(c3cc4c(cc3OC)N(C=O)[C@H]3[C@@](O)(C(=O)OC)[C@H](OC(C)=O)[C@]5(CC)C=CCN6CC[C@]43[C@@H]65)C2)C1` [free VCR, vincristine sulfate] displayed an IC50 of 0.075 µg/mL.
